Here are results for two molecules from ChEMBL document CHEMBL1156305, “Orally active and brain permeable proline amides as highly selective 5HT2c agonists for the treatment of obesity” (Bioorg Med Chem Lett, 2010).

Chains of the proteins cited; added tags and fusions are not shown.
UniProt P28223, whole entry: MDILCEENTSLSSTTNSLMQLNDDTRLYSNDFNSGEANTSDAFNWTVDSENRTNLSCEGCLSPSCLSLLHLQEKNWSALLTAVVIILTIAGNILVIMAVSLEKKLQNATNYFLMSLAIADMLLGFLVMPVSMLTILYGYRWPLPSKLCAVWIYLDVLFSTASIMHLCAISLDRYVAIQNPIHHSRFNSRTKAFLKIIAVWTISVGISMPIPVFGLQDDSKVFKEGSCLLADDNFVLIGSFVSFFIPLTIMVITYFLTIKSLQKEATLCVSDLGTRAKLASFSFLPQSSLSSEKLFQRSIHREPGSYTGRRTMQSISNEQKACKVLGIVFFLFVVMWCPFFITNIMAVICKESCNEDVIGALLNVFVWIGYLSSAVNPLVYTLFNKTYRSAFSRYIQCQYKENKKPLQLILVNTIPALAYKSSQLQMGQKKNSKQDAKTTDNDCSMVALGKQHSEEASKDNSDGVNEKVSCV

The structures appear in SMILES notation.

This assay deals with 5-hydroxytryptamine receptor 2A (Homo sapiens, UniProt P28223). Kind of assay: Agonist activity at 5HT2A receptor relative to control. Format: functional.

On to `C[C@H]1CC[C@@H](Oc2c(F)cc(CNC(=O)[C@@H]3CCCN3)cc2F)CC1`, for which the Activity was found to be 99%.
Regarding `COc1cc(OCC2CCCCC2)c(F)cc1CNC(=O)[C@@H]1CCCN1`, the Activity was determined as 67%.
